One molecule from US7951538B2, “Method to determine the risk for side effects of an SSRI treatment in a person” (The Board of Trustees of the Leland Stanford Junior …, priority 2001, dated 2011) can be followed below.

This data set has as its system patients with major depression. Description: 8 week treatment of elderly patients with major depression, genotyped for the 5-HT2A receptor gene 102 T/C polymorphism: discontinuations, adverse events, dosing, plasma levels.

Regarding `Fc1ccc([C@@H]2CCNC[C@H]2COc2ccc3c(c2)OCO3)cc1` [paroxetine], the “survival analyses, discontinuations due to any cause” value (3 genotype groups, Caucasian subjects) was “did not show a difference”. In addition, the “plasma levels at day 28” value (C/C patients versus T carriers, all subjects, p=0.056) was “Lower”. The “severity of side effects due to study drug” value (C/C versus T carriers, Caucasian subjects, p=0.051) is “Greater severity”.
